This assay concerns the target murine slc26a3 (Mus musculus, UniProt Q9WVC8). Nature of the assay: slc26a3-mediated Cl-/I- exchange, YFP fluorescence quenching in FRT-YFP-slc26a3 cells. The following applies: read-out: IC50 for inhibition of slc26a3-mediated Cl-/I- exchange. The class given is cell-based.

Chains of the proteins cited; added tags and fusions are not shown.
UniProt Q9WVC8, whole entry: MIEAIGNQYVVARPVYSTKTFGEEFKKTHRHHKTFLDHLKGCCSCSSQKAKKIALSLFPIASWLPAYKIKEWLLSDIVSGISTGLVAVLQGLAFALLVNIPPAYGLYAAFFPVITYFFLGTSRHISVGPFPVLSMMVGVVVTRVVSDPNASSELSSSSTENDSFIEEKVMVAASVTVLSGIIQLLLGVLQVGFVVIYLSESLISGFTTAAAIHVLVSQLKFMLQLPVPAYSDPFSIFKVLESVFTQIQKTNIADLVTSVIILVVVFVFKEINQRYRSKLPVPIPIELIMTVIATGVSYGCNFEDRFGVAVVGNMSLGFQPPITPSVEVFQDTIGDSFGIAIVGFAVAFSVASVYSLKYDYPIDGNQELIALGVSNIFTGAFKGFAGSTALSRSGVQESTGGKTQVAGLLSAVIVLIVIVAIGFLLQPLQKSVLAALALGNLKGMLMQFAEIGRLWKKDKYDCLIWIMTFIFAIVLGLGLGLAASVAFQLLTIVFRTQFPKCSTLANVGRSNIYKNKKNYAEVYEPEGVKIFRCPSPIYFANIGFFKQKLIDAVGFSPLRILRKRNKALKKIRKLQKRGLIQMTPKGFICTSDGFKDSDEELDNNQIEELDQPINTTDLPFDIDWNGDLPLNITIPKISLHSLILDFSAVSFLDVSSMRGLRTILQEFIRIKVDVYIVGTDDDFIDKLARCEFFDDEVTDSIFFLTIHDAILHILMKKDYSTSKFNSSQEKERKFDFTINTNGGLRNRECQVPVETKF

For the molecule `O=C(CSc1nccn1-c1ccc(F)cc1)Nc1ccc(Br)cc1`, the IC50 turned out to be 9 µM.

The values above are taken from patent US20230339878A1, “SLC26A3 INHIBITORS AND USE THEREOF” (THE REGENTS OF THE UNIVERSITY OF CALIFORNIA, priority 2018, published 2023).
